# Target: VX-adducted recombinant human AChE (Homo sapiens, UniProt P22303)
# Assay: Reactivation of VX-adducted acetylcholinesterase
# Conditions: VX-inhibited enzyme, 2 mM compound, measured at 28.9 min
row,Compound,Maximum reactivation percentage observed [%]
1,C[C@@H](CN1CCCc2ccccc2C1)NC(=O)/C=N/O,24.8

# Same assay, conditions: VX; oxime 18 µM to 2 mM, 30 min
Compound,"Overall reactivation rate, kr2 [M⁻¹ s⁻¹]","Reactivation rate, kr [min⁻¹]"
C[C@@H](CN1CCCc2ccccc2C1)NC(=O)/C=N/O,0.34 ± 0.0483,0.01 ± 0.0007

# Target: NIMP-adducted acetylcholinesterase (Homo sapiens, UniProt P22303)
# Assay: Acetylcholinesterase reactivation screening (modified Ellman's assay)
# Conditions: 100 µM oxime, NIMP-adducted AChE, fraction relative to control AChE
row,Compound,Fraction reactivated (t = 30 min) (mean)
1,CCN(CC)CC(C)NC(=O)/C=N/O (stereo not drawn),0.055
2,CN(C)C1CCN(C(=O)/C=N/O)C1 (stereo not drawn),0.00853
3,CC(C)(C)OC(=O)N1CCCC(NC(=O)/C=N/O)C1 (stereo not drawn),0.025
4,CC(C)(C)OC(=O)N1CC[C@H](NC(=O)/C=N/O)C1,0.011
5,O=C(/C=N/O)NC1CCCC1,-0.00663
6,O=C(/C=N/O)N1CCN(CCc2cccs2)CC1,-0.018
7,O=C(/C=N/O)NC1CCC1,0.037
8,O=C(/C=N/O)N1CCN(CC2CCCC2)CC1,0.00224
9,CC(C)(C)OC(=O)N1CC(NC(=O)/C=N/O)C1,0.026
10,CCC(CN1CCCC1)NC(=O)/C=N/O (stereo not drawn),0.024
11,CC(C)CN1CCN(C(=O)/C=N/O)CC1,0.008
12,O=C(/C=N/O)NCCN1CCCCCC1,0.452
13,O=C(/C=N/O)NC1CC1,0.048
14,C[C@@H](CN1CCc2ccccc2CC1)NC(=O)/C=N/O,0.032
15,C[C@@H](CN1CCCc2ccccc2C1)NC(=O)/C=N/O,0.104
16,CC(CN(C)C)NC(=O)/C=N/O (stereo not drawn),0.092
17,O=C(/C=N/O)N1CCN(Cc2ccc(Cl)cc2)CC1,-0.00254

row,Compound,Fraction reactivated (t = 30 min) (mean)
1,CC(C)(C)OC(=O)NCCNC(=O)/C=N/O,0.054
2,CC1CCN(CC(C)NC(=O)/C=N/O)CC1 (stereo not drawn),0.089
3,CC(C)(C)OC(=O)NC1CCN(C(=O)/C=N/O)C1 (stereo not drawn),-0.011
4,O=C(/C=N/O)N1CCC(N2CCCCC2)CC1,0.009
5,O=C(/C=N/O)N1CCCN(C(=O)/C=N/O)CC1,0.057
6,NCCNC(=O)/C=N/O,0.033
7,CCCCNC(=O)/C=N/O,0.057
8,CN1CCCN(C(=O)/C=N/O)CC1,0.036
9,CN(C)CCNC(=O)/C=N/O,0.049
10,O=C(/C=N/O)NCCN1CCOCC1,0.036
11,CC(CN1CCCCC1)NC(=O)/C=N/O (stereo not drawn),0.051
12,O=C(/C=N/O)NCc1ccccc1,0.010
13,CC(CN1CCCCCC1)NC(=O)/C=N/O (stereo not drawn),0.232
14,O=C(/C=N/O)NCCCN1CCCCC1,0.045
15,O=C(/C=N/O)NCCN1CCCC1,0.144
16,O=C(/C=N/O)N1CCN(Cc2cccc(Cl)c2)CC1,-0.009

# Target: GB-adducted recombinant human AChE (Homo sapiens, UniProt P22303)
# Assay: Reactivation of GB-adducted acetylcholinesterase
# Conditions: GB-inhibited enzyme, 2 mM compound, measured at 33.2 min
row,Compound,Maximum reactivation percentage observed [%]
1,C[C@@H](CN1CCCc2ccccc2C1)NC(=O)/C=N/O,9.5

# Same assay, conditions: GB; oxime 18 µM to 2 mM, 30 min
Compound,"Overall reactivation rate, kr2 [M⁻¹ s⁻¹]","Reactivation rate, kr [min⁻¹]"
C[C@@H](CN1CCCc2ccccc2C1)NC(=O)/C=N/O,0.113 ± 0.013,0.004 ± 0.0001
